Measurements taken from patent US20040048790A1.

Experiments:
Conditions in all cases: remark: other sources report otherwise
HLA-A*6802 (human) [1] = experiment: 125I-probe peptide inhibition, purified HLA
HLA-A*6802 (human) [2] = experiment: competition vs 125I probe peptide, purified HLA
HLA-A*0202 (human) [3] = experiment: 125I-probe peptide inhibition, purified HLA
HLA-A*3101 (human) = experiment: 125I-probe peptide inhibition, purified HLA
HLA-B*3501 (human) = experiment: 125I-probe peptide inhibition, purified HLA
HLA-B*0702 (human) = experiment: 125I-probe peptide inhibition, purified HLA
HLA-B*5301 (human) = experiment: 125I-probe peptide inhibition, purified HLA
HLA-A*0206 (human) [4] = experiment: 125I-probe peptide inhibition, purified HLA
HLA-A*0206 (human) [5] = experiment: competition vs 125I probe peptide, purified HLA
HLA-A*0202 (human) [6] = experiment: competition vs 125I probe peptide, purified HLA

B1: p53.132B4V9 (peptide)
peptide: KMFBQLAKV
modifications: here or on the partner: B at position 4 = alpha-amino butyric acid (in place of Cys)
HLA-A*6802 (human) [1]
  IC50: 8890 nM
HLA-A*6802 (human) [2]
  IC50: 8890 nM

## CLLAKTCPV [p53.135L2]
HLA-A*0202 (human) [3]
  IC50: 506 nM

## GVRVRAMAIYK [p53.154.V2]
HLA-A*3101 (human)
  IC50: 419 nM

## SVSRHKKLMFR [p53.376.V2R11]
HLA-A*3101 (human)
  IC50: 184 nM

## APAPAPSW [p53.84]
HLA-B*3501 (human)
  IC50: 3270 nM

## APAPAPSI [p53.84.18]
HLA-B*0702 (human)
  IC50: 275 nM
HLA-B*5301 (human)
  IC50: 291 nM

## FLHSGTAKSV [p53.113]
HLA-A*0206 (human) [4]
  IC50: 4620 nM
HLA-A*0206 (human) [5]
  IC50: 4620 nM

## ALPPVAPV [p53.69L2V8]
HLA-A*0202 (human) [3]
  IC50: 7170 nM
HLA-A*0206 (human) [4]
  IC50: 285 nM
HLA-A*0202 (human) [6]
  IC50: 7170 nM
HLA-A*0206 (human) [5]
  IC50: 285 nM
